From patent US6572788B2, “Amine oxide wood preservatives” (Lonza, Inc., priority 2000, dated 2003)

Columns and labels:
Test in all cases: Agar dilution plate method, wood rot fungi
Format in all cases: cell-based
Details in all cases: 100% growth retardation, Table 14
[1] = tested on: G. trabeum (brown rot fungi)
Method: (§1) The efficacy of the aqueous amine oxide solutions in Table 14 at various concentrations against the wood rot fungi T. versicolor (white rot fungi), G. trabeum (brown rot fungi), P. placenta (brown rot fungi), and C. globosum (soft rot decay fungi) were determined using the agar dilution plate method well known in the art. The minimum concentration of each amine oxide required to achieve 100% growth retardation of each specific organism, i.e., the minimum inhibitory concentration (MIC), was determined. The percent retardation of the fungi was determined by the percentage change in the diameter of the fungi on the agar plate (i.e. Percent Retardation=((Diameter of Control)−(Diameter of Treated Fungi))/(Diameter of Control)*100%).
(§2) The minimum concentration of the aqueous amine oxide solutions in Table 15 required to achieve 50% growth retardation of each specific organism, i.e., IC50, was estimated from the data obtained using Table2D curve fitting.

[2] = tested on: T. versicolor (white rot fungi)
Method: as §1, §2

[3] = tested on: C. globosum (soft rot decay fungi)
Method: as §1, §2

[4] = tested on: P. placenta (brown rot fungi)
Method: as §1, §2

Measured: MIC (ppm of amine oxides)

CCCCCCCC/C=C\CCCCCCCC[N+](C)(C)[O-] [Oleyl-DMAO]
>1000 ppm: [1] | [2] | [3] | [4]
